Assay results as given in patent publication US9670166B2, “Substituted bicyclic dihydropyrimidinones and their use as inhibitors of neutrophil elastase activity” (Boehringer Ingelheim International GmbH, priority 2013, dated 2017).

Assay: Metabolic stability with human hepatocytes
Type: in vitro ADME
Conditions: human hepatocyte suspension, 1 μM, scaled by well stirred model
Procedure: Human hepatocytes (typically cryopreserved) are incubated in an appropriate buffer system (e.g. Dulbecco's modified eagle medium plus 3.5 μg glucagon/500 mL, 2.5 mg insulin/500 mL and 3.75 mg/500 mL hydrocortisone) containing 5% species serum. Following a (typically) 30 min preincubation in an incubator (37° C., 10% CO2), 5 μl of test compound solution (80 μM; from 2 mM stock solution in DMSO diluted 1:25 with medium) are added into 395 μl hepatocyte suspension (cell density in the range 0.25-5*10^6 cells/mL, typically 1*10^6 cells/mL; final concentration of test compound 1 μM, final DMSO concentration 0.05%). […] The decline of parent compound is analyzed by LC-MS/MS.
The intrinsic clearance CL_[…] is calculated as follows: CL_[…]=Dose/AUC=(C0/CD)/(AUD+clast/k)*1,000/60 […]
The calculated in vitro hepatic intrinsic clearance can be scaled up to the intrinsic in vivo hepatic clearance and used to predict hepatic in vivo blood clearance (CL) by the use of a liver model (well stirred model): CL_[…]_INVIVO [ml/min/kg]=(CL_[…] [μL/min/10^6 cells]*hepatocellularity [10^6 cells/g liver]*liver factor [g/kg bodyweight])/1,000 CL [ml/min/kg]=CL_[…]_INVIVO [ml/min/kg]*hepatic blood flow [ml/min/kg]/(CL_[…]_INVIVO [ml/min/kg]+hepatic blood flow [ml/min/kg]) Qh [%]=CL [ml/min/kg]/hepatic blood flow [ml/min/kg]) […]

## CS(=O)(=O)c1cc(C#N)ccc1C1C2=C(CCC2=O)N(c2cccc(C(F)F)c2)C(=O)N1C(=O)NC1CC1 (stereo not shown) [Example 53.3]
  CL (predicted human hepatic in vivo blood clearance): 0 mL/min/kg
